Chains of the proteins cited; added tags and fusions are not shown. Lines headed by an entry give the natural chain unless they say otherwise; changes in a name come on top.
UniProt P35372, whole entry, looked up: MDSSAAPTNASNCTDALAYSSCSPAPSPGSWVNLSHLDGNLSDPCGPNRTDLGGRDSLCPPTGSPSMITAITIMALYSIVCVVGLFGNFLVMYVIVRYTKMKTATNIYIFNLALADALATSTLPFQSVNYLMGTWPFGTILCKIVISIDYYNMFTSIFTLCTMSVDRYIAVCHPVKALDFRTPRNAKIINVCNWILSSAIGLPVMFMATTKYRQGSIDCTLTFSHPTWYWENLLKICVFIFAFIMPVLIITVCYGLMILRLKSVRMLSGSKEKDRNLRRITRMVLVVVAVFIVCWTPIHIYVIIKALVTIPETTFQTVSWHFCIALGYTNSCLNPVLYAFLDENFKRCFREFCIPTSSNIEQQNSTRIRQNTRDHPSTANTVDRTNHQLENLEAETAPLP
UniProt P41146: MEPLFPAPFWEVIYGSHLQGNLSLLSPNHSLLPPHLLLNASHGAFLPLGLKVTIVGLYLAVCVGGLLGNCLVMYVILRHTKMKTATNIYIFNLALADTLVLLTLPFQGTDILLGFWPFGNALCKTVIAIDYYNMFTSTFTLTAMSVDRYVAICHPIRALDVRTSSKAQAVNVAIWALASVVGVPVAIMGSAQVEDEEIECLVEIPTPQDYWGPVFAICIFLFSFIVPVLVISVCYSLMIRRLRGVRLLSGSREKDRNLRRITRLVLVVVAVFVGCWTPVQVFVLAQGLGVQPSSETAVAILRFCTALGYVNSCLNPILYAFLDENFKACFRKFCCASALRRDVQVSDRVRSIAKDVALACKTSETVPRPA

In patent publication US8293758B2, “Substituted spirocyclic cyclohexane derivatives” (dated 2012):

What was measured:
[1] = molecular target: human μ-opiate receptor (Homo sapiens, UniProt P35372); test: μ-opiate receptor binding assay with [3H]-naloxone (WGA-SPA beads); details: test concentration 1 μM; CHO-K1 membrane preparation; 1 nmol/l [3H]-naloxone
[2] = molecular target: ORL 1-receptor (Homo sapiens, UniProt P41146); test: ORL 1 receptor binding assay with 3H-nociceptine/orphanin FQ (WGA-SPA beads); details: membranes of recombinant CHO-ORL 1 cells, 0.5 nM 3H-nociceptine/orphanin FQ; for Ki: read-out: Ki (ORL1) Mean, mean; for % Inhibition (ORL1) [1 μM]: test concentration 1 μM

Compound | % Inhibition (μ) [1 μM] [1] | Ki [2] | % Inhibition (ORL1) [1 μM] [2]
CC1CC(c2ccccc2)(N(C)C)CCC12OCCc1c2[nH]c2ncccc12 (stereo not drawn) | 84% | 230 nM | 50%
CN(C)C1(c2ccccc2)CCC2(NCCc3c2[nH]c2ccccc32)C(Cc2cccc(F)c2)C1 (stereo not drawn) | 103% | 107 nM | 97%
CN(C)C1(c2ccccc2)CCC2(OCCc3c2[nH]c2ccc(F)cc32)C(F)C1 (single isomer, unassigned) |  | 2810 nM | 29%
2-(4-(Dimethylamino)-4-phenyl-4′,9′-dihydro-3′H-spiro[cyclohexane-1,1′-pyrano[3,4-b]indole]-2-yl)methyl)isoindoline-1,3-dione |  |  | 83%
CN(C)C1(c2ccccc2)CCC2(OCCc3c2[nH]c2ccccc32)C(CO)C1 (stereo not drawn) | 99% | 63 nM | 80%
CN(C)C1(c2ccccc2)CCC2(OCCc3c2[nH]c2ccccc32)C(Sc2ccccc2)C1 (racemic) | 90% |  | 53%
CN(C)C1(c2ccccc2)CCC2(NCCc3c2[nH]c2ccccc32)C(Cc2ccccc2)C1.O=C(O)CC(O)(CC(=O)O)C(=O)O (stereo not drawn) | 96% |  | 93%
CC(=O)OCC1CC(c2ccccc2)(N(C)C)CCC12OCCc1c2[nH]c2ccccc12 (stereo not drawn) | 75% | 340 nM | 50%
N-((4-(dimethylamino)-4-(3-fluorophenyl)-4′,9′-dihydro-3′H-spiro[cyclohexane-1,1′-pyrano[3,4-b]indole]-2-yl)methyl)-3-phenylcinnamic acid amide | 97% | 70 nM | 83%
CC1CC(c2ccccc2)(N(C)C)CCC12OCCc1c2[nH]c2ccccc12 (stereo not drawn) |  | 1 nM | 
CN(C)C1(c2ccccc2)CCC2(NCCc3c2[nH]c2ccccc32)C(Sc2ccccc2)C1 (stereo not drawn) | 88% | 2050 nM | 73%
CC1CC(c2ccccc2)(N(C)C)CCC12OCCc1c2[nH]c2ccccc12.O=C(O)CC(O)(CC(=O)O)C(=O)O (racemic) | 106% |  | 97%
CC1CC(c2ccccc2)(N(C)C)CCC12OCCc1c2[nH]c2ccccc12 (racemic) |  | 6 nM | 
CC1CC(c2ccccc2)(N(C)C)CCC12OCCc1c2[nH]c2ccccc12.O=C(O)CC(O)(CC(=O)O)C(=O)O (stereo not drawn) | 77% |  | 99%
CN(C)C1(c2ccccc2)CCC2(NCCc3c2[nH]c2ccccc32)C(F)C1 (single isomer, unassigned) |  | 27 nM | 87%
